Experiments:
α1d = α1d (Homo sapiens, UniProt P25100); details: read-out: Affinity (Ki, nM) α1d; recombinant cloned human receptor, CHO cell membranes, 0.2 nM [3H]prazosin
α1b = α1b (Homo sapiens, UniProt P35368)
α1a = target: T1, α1a (Homo sapiens, UniProt P35348); details: read-out: Affinity (Ki, nM) α1a; recombinant cloned human receptor, CHO cell membranes, 0.2 nM [3H]prazosin
T1 sequence (P35348 1-466): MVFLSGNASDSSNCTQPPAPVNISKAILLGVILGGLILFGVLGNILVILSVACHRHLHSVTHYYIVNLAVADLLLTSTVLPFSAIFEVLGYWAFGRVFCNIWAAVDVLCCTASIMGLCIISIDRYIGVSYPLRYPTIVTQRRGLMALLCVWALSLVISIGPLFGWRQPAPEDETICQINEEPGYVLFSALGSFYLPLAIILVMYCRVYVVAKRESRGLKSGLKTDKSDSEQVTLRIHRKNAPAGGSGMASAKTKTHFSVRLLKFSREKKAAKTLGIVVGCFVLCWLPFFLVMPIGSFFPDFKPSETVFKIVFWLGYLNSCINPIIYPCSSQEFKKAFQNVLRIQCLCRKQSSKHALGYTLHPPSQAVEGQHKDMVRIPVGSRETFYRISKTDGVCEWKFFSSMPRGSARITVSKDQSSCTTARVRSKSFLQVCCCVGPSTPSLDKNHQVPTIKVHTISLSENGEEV

Sequences of proteins named here, by UniProt entry; tags and fusion partners are left off.
UniProt P25100, whole entry: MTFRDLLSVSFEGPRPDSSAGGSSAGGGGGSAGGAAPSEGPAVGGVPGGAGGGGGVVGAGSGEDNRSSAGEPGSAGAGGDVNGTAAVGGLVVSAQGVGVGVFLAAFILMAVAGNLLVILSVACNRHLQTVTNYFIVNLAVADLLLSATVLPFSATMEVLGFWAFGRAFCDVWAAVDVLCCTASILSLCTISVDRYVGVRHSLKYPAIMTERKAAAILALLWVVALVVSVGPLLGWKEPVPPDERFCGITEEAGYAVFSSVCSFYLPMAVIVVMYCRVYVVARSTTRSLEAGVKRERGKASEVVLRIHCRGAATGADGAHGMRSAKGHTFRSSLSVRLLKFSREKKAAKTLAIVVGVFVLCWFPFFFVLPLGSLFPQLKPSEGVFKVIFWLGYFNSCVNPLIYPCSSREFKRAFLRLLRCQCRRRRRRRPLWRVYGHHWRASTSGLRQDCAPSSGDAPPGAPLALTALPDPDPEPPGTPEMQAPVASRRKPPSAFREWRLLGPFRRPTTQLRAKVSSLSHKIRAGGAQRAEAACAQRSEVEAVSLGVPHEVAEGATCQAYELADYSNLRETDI
UniProt P35368, whole entry: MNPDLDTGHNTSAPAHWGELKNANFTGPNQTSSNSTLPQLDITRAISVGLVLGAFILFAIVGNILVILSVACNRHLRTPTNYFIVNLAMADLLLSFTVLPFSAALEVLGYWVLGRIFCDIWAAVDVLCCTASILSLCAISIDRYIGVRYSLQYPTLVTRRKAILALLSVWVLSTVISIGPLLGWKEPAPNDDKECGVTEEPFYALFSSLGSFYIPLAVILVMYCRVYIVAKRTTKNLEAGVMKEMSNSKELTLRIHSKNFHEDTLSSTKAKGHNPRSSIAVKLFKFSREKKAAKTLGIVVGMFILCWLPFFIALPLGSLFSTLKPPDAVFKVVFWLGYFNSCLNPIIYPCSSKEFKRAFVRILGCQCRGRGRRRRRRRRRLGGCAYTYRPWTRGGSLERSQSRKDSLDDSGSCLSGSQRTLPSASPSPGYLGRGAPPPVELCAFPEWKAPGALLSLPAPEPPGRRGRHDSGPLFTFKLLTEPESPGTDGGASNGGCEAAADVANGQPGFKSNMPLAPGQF

Ki (α1d): 2.84 nM
Ki (α1b): 3.29 nM
Ki (α1a): 0.6 nM
SMILES: COc1ccccc1N1CCN(CCCNC(=O)c2cccc3c(=O)c(C)c(-c4ccccc4)oc23)CC1 [Compound A]

Source: patent EP1200445B1, “THIENOPYRANECARBOXAMIDE DERIVATIVES” (RECORDATI INDUSTRIA CHIMICA E FARMACEUTICA S.p.a., priority 1999, dated 2001)
